In ChEMBL document CHEMBL6134906, “Design, Synthesis, and Biological Evaluation of Selective STING Synergists That Enhance cGAMP-STING Pathway Activation without Inherent Agonist Activity” (J Med Chem, 2025):

Key:
HEK293 = assay: Cytotoxicity against human HEK293 cells expressing mouse STING assessed as reduction in cell viability at 100 uM incubated for 48 hrs by CellTiter Glo luminescent cell viability assay; assay type: toxicity, cell-based; conditions: hek293, 48 h
[1] = Toxicity in male C57BL/6 mouse model implanted with mouse B16-F10 cells assessed as effect on body weight at 20 mg/kg, ip co-administered with PD-L1 antibody on days 7, 10 and 13; assay type: organism-based; conditions: in vivo, 168 h, time 7 day
[2] = Cytotoxicity against human PBMC cells assessed as increase in IFN-beta mRNA level at 5 to 100 uM incubated for 4 hrs by RT-qPCR analysis; assay type: toxicity, cell-based; conditions: dose 5-100 µM
[3] = Cytotoxicity against human PBMC cells assessed as increase in CXCL-10 mRNA level at 5 to 100 uM incubated for 4 hrs by RT-qPCR analysis; assay type: toxicity, cell-based; conditions: dose 5-100 µM
[4] = Cytotoxicity against human PBMC cells assessed as increase in IL-6 mRNA level at 5 to 100 uM incubated for 4 hrs by RT-qPCR analysis; assay type: toxicity, cell-based; conditions: dose 5-100 µM
[5] = Cytotoxicity against human PBMC cells assessed as increase in CXCL-10 mRNA level at 25 uM incubated for 4 hrs in presence of cGAMP by RT-qPCR analysis; assay type: toxicity, cell-based
[6] = Cytotoxicity against human PBMC cells assessed as increase in IL6 mRNA level at 25 uM incubated for 4 hrs in presence of cGAMP by RT-qPCR analysis; assay type: toxicity, cell-based
[7] = Cytotoxicity against human PBMC cells assessed as reduction in cell viability at 5 to 100 uM incubated for 24 hrs by CellTiter-Glo assay; assay type: toxicity, cell-based; conditions: dose 5-100 µM
[8] = Toxicity in male C57BL/6 mouse assessed as effect on physical appearance at 20 to 100 mg/kg, ip administered for 7 days; assay type: organism-based; conditions: in vivo, 168 h, dose 20-100 mg/kg, time 7 day
[9] = Toxicity in male C57BL/6 mouse assessed as signs of distress at 20 to 100 mg/kg, ip administered for 7 days; assay type: organism-based; conditions: in vivo, 168 h, dose 20-100 mg/kg, time 7 day
[10] = Toxicity in male C57BL/6 mouse assessed as effect on heart weight at 20 to 100 mg/kg, ip administered for 7 days; assay type: organism-based; conditions: in vivo, 168 h, dose 20-100 mg/kg, time 7 day
[11] = Toxicity in male C57BL/6 mouse assessed as effect on liver weight at 20 to 100 mg/kg, ip administered for 7 days; assay type: organism-based; conditions: in vivo, 168 h, dose 20-100 mg/kg, time 7 day
[12] = Toxicity in male C57BL/6 mouse assessed as effect on spleen weight at 20 to 100 mg/kg, ip administered for 7 days; assay type: organism-based; conditions: in vivo, 168 h, dose 20-100 mg/kg, time 7 day
[13] = Toxicity in male C57BL/6 mouse assessed as effect on spleen architecture at 20 to 100 mg/kg, ip administered for 7 days by H and E staining based analysis; assay type: organism-based; conditions: in vivo, 168 h, dose 20-100 mg/kg, time 7 day
[14] = Toxicity in male C57BL/6 mouse assessed as hepatocellular vacuolation at 100 mg/kg, ip administered for 7 days by H and E staining based analysis; assay type: organism-based; conditions: in vivo, 168 h, time 7 day
[15] = Toxicity in male C57BL/6 mouse assessed as nephrotoxic tubular degeneration at 100 mg/kg, ip administered for 7 days by H and E staining based analysis; assay type: organism-based; conditions: in vivo, 168 h, time 7 day
[16] = Toxicity in male C57BL/6 mouse assessed as alanine aminotransferase level at 20 mg/kg, ip administered for 7 days by biochemical analysis (reference value: 41.6 U/L); assay type: organism-based; conditions: in vivo, 168 h, time 7 day
[17] = Toxicity in male C57BL/6 mouse assessed as alanine aminotransferase level at 100 mg/kg, ip administered for 7 days by biochemical analysis (reference value: 41.6 U/L); assay type: organism-based; conditions: in vivo, 168 h, time 7 day
[18] = Toxicity in male C57BL/6 mouse assessed as alkaline phosphatase level at 100 mg/kg, ip administered for 7 days by biochemical analysis (reference value: 268.4 U/L); assay type: organism-based; conditions: in vivo, 168 h, time 7 day
[19] = Toxicity in male C57BL/6 mouse assessed as creatinine level at 20 mg/kg, ip administered for 7 days by biochemical analysis (reference value: 65.0 micromol/L); assay type: organism-based; conditions: in vivo, 168 h, time 7 day
[20] = Toxicity in male C57BL/6 mouse assessed as creatinine level at 100 mg/kg, ip administered for 7 days by biochemical analysis (reference value: 65.0 micromol/L); assay type: organism-based; conditions: in vivo, 168 h, time 7 day
[21] = target: T1, Stimulator of interferon genes protein (Mus musculus) (UniProt Q3TBT3); assay: Potentiation of diABZI-induced mouse STING pathway activation expressed in HEK293 cells assessed as SEAP production at 50 uM incubated for 48 hrs by QUANTI-Blue solution based spectrophotometric analysis; assay type: cell-based
T1 sequence (whole entry): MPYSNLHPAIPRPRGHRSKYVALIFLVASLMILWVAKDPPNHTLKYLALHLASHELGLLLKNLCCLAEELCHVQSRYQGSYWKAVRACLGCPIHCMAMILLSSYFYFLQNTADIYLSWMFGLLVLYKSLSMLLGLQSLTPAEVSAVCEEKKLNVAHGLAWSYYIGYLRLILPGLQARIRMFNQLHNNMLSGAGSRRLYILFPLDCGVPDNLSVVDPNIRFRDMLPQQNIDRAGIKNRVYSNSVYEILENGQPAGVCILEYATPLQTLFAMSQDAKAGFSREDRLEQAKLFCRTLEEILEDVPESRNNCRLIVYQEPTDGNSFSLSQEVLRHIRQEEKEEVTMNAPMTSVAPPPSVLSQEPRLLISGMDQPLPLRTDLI

## CCOC(=O)Cn1c2ccc(C)cc2c(=O)c2cc(OC)c(C)c(C)c21
HEK293
  Activity: Non-toxic
[1]
  Activity: Non-toxic
[2]
  Activity: Non-toxic
[3]
  Activity: Non-toxic
[4]
  Activity: Non-toxic
[5]
  Activity: Toxic
[6]
  Activity: Toxic
[7]
  Activity: Non-toxic
[8]
  Activity: Non-toxic
[9]
  Activity: Non-toxic
[10]
  Activity: Non-toxic
[11]
  Activity: Non-toxic
[12]
  Activity: Non-toxic
[13]
  Activity: Non-toxic
[14]
  Activity: Non-toxic
[15]
  Activity: Non-toxic
[16]
  Activity: 46.8 U/L
[17]
  Activity: 52.2 U/L
[18]
  Activity: 277.8 U/L
[19]
  Activity: 69.8 µmol/L
[20]
  Activity: 66.6 µmol/L
[21]
  Activity: inactive

Activity calls are given as the source filed them. No cut-off for these calls is given here.
